Holding throughout (experiment): biochemical
The target of one assay is HLA-A*0201 (Homo sapiens, UniProt P04439, D140Y/D185E/D98H/E176V/E277Q/G131W/G231S/I119V/I121R/I166T/I218V/L300P/L318F/N151K/N90K/P208A/P217A/Q86G/Q94H/R138H/R169H/T345S). It counts as binding.
The next assay has as its target HLA-A*0202 (Homo sapiens, UniProt P04439, D140Y/D185E/D98H/E176V/E277Q/G131W/G231S/I119L/I121R/I166T/I218V/L180W/L300P/L318F/N151K/N90K/P208A/P217A/Q67R/Q86G/Q94H/R138H/R169H/T345S). The class given is binding.
The target in a further assay is HLA-A*0203 (Homo sapiens, UniProt P04439, A173T/D140Y/D185E/D98H/E277Q/G131W/G231S/I119V/I121R/I166T/I218V/L180W/L300P/L318F/N151K/N90K/P208A/P217A/Q86G/Q94H/R138H/R169H/T345S). It counts as binding.
The next assay deals with HLA-DR DRB1*0101 (DR1) (Homo sapiens, UniProt P01903+P01911, A100R/D57E/F55L/F60I/F76Y/I96L/L162R/M171V/P40L/Q125E/R42F/V115G/Y59C). It counts as binding. The note with it: DRB1 *0101.
Another assay concerns the target HLA-DR DRB1*0301 (DR3) (Homo sapiens, UniProt P01903+P01911, A100K/A102G/A103R/A169T/F55Y/I96L/K41T/L162R/M171V/P40S/Q125H/Q178H/Q39Y/R42S/S66N/T106N/T262R/W38E/Y61H). The class given is binding.
Another assay addresses HLA-DR DRB1*0401 (DR4) (Homo sapiens, UniProt P01903+P01911, A100K/A169T/F76Y/I96L/K127E/L162R/M171V/N62H/P40V/Q125Y/R42H/S133A/S149N/S66Y/V115G/V209L/W38E). The class given is binding. The note with it: DRB1 *0401.
The target of a further assay is HLA-DR DRB1*0701 (DR7) (Homo sapiens, UniProt P01903+P01911, A100R/A102G/A103Q/D57E/D86V/E43K/F76Y/K127E/L162R/M171V/P40G/Q125H/Q99D/R33Q/R42Y/R54Q/S133A/S66F/T210M/V115G/Y107V/Y59L/Y89S). The class given is binding. The note with it: DRB1 *0701.
The target of a further assay is HLA-DR DRB1*0802 (DR8) (Homo sapiens, UniProt P01903+P01911, A100R/A103L/A169T/F76Y/H45Y/I96F/K41T/L162R/M171V/P40S/Q125H/Q178H/Q39Y/Q99D/R218S/R42G/S66Y/V115G/W38E). It counts as binding.
For the next assay, the target named is HLA-DR DRB1*0901 (DR9) (Homo sapiens, UniProt P01903+P01911, A100R/A103E/D57H/D86V/F55Y/F60I/F76Y/I96F/K127E/L162R/M171V/P40D/Q125H/Q99R/R33Q/R42F/S133A/S66N/T210M/V115G/W38K/Y107V/Y59G/Y89S). It counts as binding. The note with it: DRB1 *0901.
The target in the next assay is HLA-DR DRB1*1302 (DR13) (Homo sapiens, UniProt P01903+P01911, A100E/A169T/K41T/L162R/M171V/P40S/Q125H/Q178H/Q39Y/Q99D/R42S/S66N/T262R/V115G/W38E/Y61H). It counts as binding. The note with it: DRBI *1302.
The next assay concerns the target HLA-DR DRB1*1501 (DR15) (Homo sapiens, UniProt P01903+P01911). The class given is binding. The note with it: DRBI *1501.
Another assay deals with HLA-DR DRB3*0101 (DR52) (Homo sapiens, UniProt P01903+P79483). The class given is binding.
The target of a further assay is HLA-DR DRB4*0101 (DR53) (Homo sapiens, UniProt P01903+P13762, G164S). The class given is binding. The note with it: DRB4 *0101.
In a further assay the target is HLA-A*0206 (Homo sapiens, UniProt P04439, D140Y/D185E/D98H/E176V/E277Q/F33Y/G131W/G231S/I119V/I121R/I166T/I218V/L300P/L318F/N151K/N90K/P208A/P217A/Q86G/Q94H/R138H/R169H/T345S). It counts as binding.
The next assay deals with HLA-DR DRB1*0405 (DR4) (Homo sapiens, UniProt P01903+P01911, A100R/A169T/D86S/F76Y/I96L/K127E/L162R/M171V/N62H/P40V/Q125Y/R42H/S133A/S149N/S66Y/V115G/V209L/W38E). The class given is binding. The note with it: DRB1 *0405.
Another assay addresses HLA-DR DRB1*1101 (DR11) (Homo sapiens, UniProt P01903+P01911, A100R/A169T/A87E/I96F/K41T/L162R/M171V/P40S/Q125H/Q178H/Q39Y/Q99D/R42S/S66Y/T262R/V115G/W38E). The class given is binding. The note with it: DRB1 *1101.
Another assay addresses HLA-DR DRB5*0101 (DR51) (Homo sapiens, UniProt P01903+Q30154). It counts as binding. The note with it: DRB5 *0101.
The next assay deals with HLA-A*3002 (Homo sapiens, UniProt P04439, D101N/D140H/D185E/E176R/F33S/G80R/H175R/K168Q/Q94H/R138E/R41S/V100E). The note with it: Binding affinity to A*3002 (expressed as an IC50).
Where [1] appears, read: A*0201 binding affinity (expressed as an IC50).
[2] abbreviates: A*0202 binding affinity (expressed as an IC50).
[3] abbreviates: A*0203 binding affinity (expressed as an IC50).
Setting [4] is: A*0206 binding affinity (expressed as an IC50).

Sequences of proteins named here, by UniProt entry; tags and fusion partners are left off. Residues count along the entry.
UniProt P79483, 30-266: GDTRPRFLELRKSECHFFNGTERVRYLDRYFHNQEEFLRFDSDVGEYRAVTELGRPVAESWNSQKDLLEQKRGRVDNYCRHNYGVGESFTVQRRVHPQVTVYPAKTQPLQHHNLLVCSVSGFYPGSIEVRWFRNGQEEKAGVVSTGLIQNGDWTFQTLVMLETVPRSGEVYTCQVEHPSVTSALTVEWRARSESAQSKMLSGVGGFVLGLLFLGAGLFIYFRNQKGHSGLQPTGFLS
UniProt Q30154, 30-266: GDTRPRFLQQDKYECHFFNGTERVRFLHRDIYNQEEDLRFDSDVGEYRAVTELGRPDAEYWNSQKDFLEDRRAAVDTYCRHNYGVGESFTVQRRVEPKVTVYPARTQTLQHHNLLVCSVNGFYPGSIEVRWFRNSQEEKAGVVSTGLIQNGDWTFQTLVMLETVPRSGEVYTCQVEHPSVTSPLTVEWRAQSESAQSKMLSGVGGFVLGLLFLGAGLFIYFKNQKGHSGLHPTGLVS

Where two headings read alike, the source gives them in different places.

Consider `CC(C)C[C@H](NC(=O)[C@H](C)N)C(=O)N[C@@H](Cc1ccccc1)C(=O)N1CCC[C@H]1C(=O)N1CCC[C@H]1C(=O)N[C@@H](CCC(=O)O)C(=O)NCC(=O)N[C@H](C(=O)N[C@@H](CO)C(=O)N[C@H](C(=O)O)C(C)C)C(C)C`, for which the IC50 (usually the concentration needed to halve the response being measured) at HLA-A*0201 (setting [1]) was determined as 15 nM.
In the case of `CC(C)C[C@H](NC(=O)CN)C(=O)N[C@@H](Cc1c[nH]cn1)C(=O)NCC(=O)N[C@@H](CCC(N)=O)C(=O)N[C@@H](CC(=O)O)C(=O)N[C@@H](CC(C)C)C(=O)N[C@@H](Cc1ccccc1)C(=O)NCC(=O)N[C@H](C(=O)O)C(C)C`, the figures for the IC50 on HLA-A*0202 (setting [2]) and at HLA-A*0203 (setting [3]) were 2.3 nM and 3.1 nM, respectively.
Take `CC[C@H](C)[C@H](NC(=O)[C@H](CC(=O)O)NC(=O)[C@H](Cc1ccccc1)NC(=O)[C@H](CC(N)=O)NC(=O)[C@H](CCCNC(=N)N)NC(=O)[C@H](CCCNC(=N)N)NC(=O)[C@H](CC(=O)O)NC(=O)[C@H](CCCCN)NC(=O)[C@H](CC(C)C)NC(=O)[C@H](CS)NC(=O)[C@H](Cc1ccc(O)cc1)NC(=O)[C@H](CCC(=O)O)NC(=O)[C@H](CC(C)C)NC(=O)[C@H](CCCNC(=N)N)NC(=O)CN)C(=O)O`: the IC50 on HLA-DR DRB1*0101 (DR1) is 9.85 µM; against HLA-DR DRB1*0301 (DR3), 0.853 µM; against HLA-DR DRB1*0401 (DR4) it was 918 nM; on HLA-DR DRB1*0701 (DR7) it was 12.1 µM; at HLA-DR DRB1*0802 (DR8), 1.32 µM; at HLA-DR DRB1*0901 (DR9) it was 25.2 µM. Further, the IC50 on HLA-DR DRB1*1302 (DR13) turned out to be 1.24 µM; against HLA-DR DRB1*1501 (DR15), 940 nM; on HLA-DR DRB3*0101 (DR52), 5.21 µM; on HLA-DR DRB4*0101 (DR53), 15.9 µM.
For `CC[C@H](C)[C@H](N)C(=O)N[C@@H](CC(C)C)C(=O)N[C@@H](Cc1ccc(O)cc1)C(=O)N[C@@H](CO)C(=O)N[C@@H](C)C(=O)N[C@@H](Cc1c[nH]cn1)C(=O)N[C@@H](CC(=O)O)C(=O)N[C@H](C(=O)N[C@H](C(=O)N[C@H](C(=O)O)C(C)C)[C@@H](C)O)[C@@H](C)O`, the IC50 at HLA-A*0206 (setting [4]) amounted to 1480 nM.
`CC[C@H](C)[C@H](NC(=O)[C@H](CS)NC(=O)[C@H](CC(C)C)NC(=O)[C@@H]1CCCN1C(=O)[C@@H](NC(=O)[C@H](CC(C)C)NC(=O)[C@@H](N)CCCCN)[C@@H](C)O)C(=O)N[C@H](C(=O)N[C@@H](CC(C)C)C(=O)O)[C@@H](C)O` showed an IC50 at HLA-A*0202 (setting [2]) of 0.27 nM.
For the compound `CC(C)C[C@H](NC(=O)[C@H](C)NC(=O)[C@H](CC(C)C)NC(=O)[C@@H](N)CC(C)C)C(=O)N[C@@H](Cc1ccccc1)C(=O)N1CCC[C@H]1C(=O)N1CCC[C@H]1C(=O)N[C@@H](CCC(=O)O)C(=O)NCC(=O)N[C@H](C(=O)O)C(C)C`, the IC50 at HLA-A*0201 (setting [1]) amounted to 5 nM.
As to `CC(C)C[C@H](NC(=O)[C@H](CCC(N)=O)NC(=O)[C@H](Cc1c[nH]cn1)NC(=O)[C@H](CC(C)C)NC(=O)[C@H](CCCNC(=N)N)NC(=O)[C@H](Cc1c[nH]cn1)NC(=O)[C@H](C)NC(=O)[C@H](CCCNC(=N)N)NC(=O)[C@@H](N)CC(C)C)C(=O)N[C@@H](C)C(=O)N[C@@H](Cc1ccccc1)C(=O)N[C@@H](CC(=O)O)C(=O)N[C@H](C(=O)N[C@@H](Cc1ccc(O)cc1)C(=O)N[C@@H](CCC(N)=O)C(=O)O)[C@@H](C)O`, the IC50 against HLA-DR DRB1*0301 (DR3) was found to be 15.6 µM; against HLA-DR DRB1*0401 (DR4), 5080 nM; on HLA-DR DRB1*0405 (DR4) it was 10.1 µM; on HLA-DR DRB1*0701 (DR7), 0.123 µM; against HLA-DR DRB1*0802 (DR8) it was 5.62 µM; against HLA-DR DRB1*0901 (DR9), 15.1 µM. Also, the IC50 against HLA-DR DRB1*1101 (DR11) came to 3.21 µM; on HLA-DR DRB1*1302 (DR13), 7.59 µM; against HLA-DR DRB1*1501 (DR15) it was 90 nM; against HLA-DR DRB3*0101 (DR52) it was 19.8 µM; against HLA-DR DRB4*0101 (DR53), 0.002 µM; at HLA-DR DRB5*0101 (DR51) it was 4.47 µM.
`CC(C)C[C@H](NC(=O)[C@@H]1CCCN1)C(=O)N[C@H](C(=O)N[C@@H](CS)C(=O)N[C@@H](CC(N)=O)C(=O)NCC(=O)N[C@H](C(=O)N[C@@H](CC(C)C)C(=O)N[C@@H](CCC(N)=O)C(=O)NCC(=O)N[C@H](C(=O)O)C(C)C)C(C)C)C(C)C` had an IC50 on HLA-A*0203 (setting [3]) of 19 nM.
In turn, `CC[C@H](C)[C@H](NC(=O)[C@@H](N)CCCNC(=N)N)C(=O)N[C@@H](CO)C(=O)NCC(=O)N[C@H](C(=O)N[C@@H](CC(=O)O)C(=O)N[C@@H](CCCNC(=N)N)C(=O)N[C@@H](Cc1ccc(O)cc1)C(=O)N[C@@H](Cc1ccc(O)cc1)C(=O)O)C(C)C` displayed an IC50 at HLA-A*3002 of 3 nM.
For the compound `CC(C)C[C@H](NC(=O)[C@H](CO)NC(=O)[C@H](CC(C)C)NC(=O)[C@@H](N)CO)C(=O)NCC(=O)N[C@@H](Cc1ccccc1)C(=O)N[C@@H](CC(C)C)C(=O)N[C@@H](Cc1ccccc1)C(=O)N[C@@H](CC(C)C)C(=O)N[C@H](C(=O)O)C(C)C`, the IC50 on HLA-A*0202 (setting [2]) stood at 3.9 nM; on HLA-A*0203 (setting [3]), 17 nM; on HLA-A*0206 (setting [4]), 42 nM.
With `CC(C)C[C@H](NC(=O)[C@H](CO)NC(=O)[C@H](CC(C)C)NC(=O)[C@@H](N)CO)C(=O)NCC(=O)N[C@@H](Cc1ccccc1)C(=O)N[C@@H](CC(C)C)C(=O)N[C@@H](Cc1ccccc1)C(=O)N[C@H](C(=O)O)C(C)C`, the IC50 on HLA-A*0201 (setting [1]) came out at 77 nM; at HLA-A*0203 (setting [3]), 21 nM; on HLA-A*0206 (setting [4]), 93 nM.
For ALGTTGYV, on HLA-A*0203 (read-out: A*0203 binding affinity (expressed as an IC50)), the IC50 was determined as 12 nM.
Take LLWQPIPVTIV: the IC50 at HLA-A*0201 (read-out: A*0201 binding affinity (expressed as an IC50)) stood at 25 nM; at HLA-A*0202 (read-out: A*0202 binding affinity (expressed as an IC50)), 1.8 nM; on HLA-A*0206 (read-out: A*0206 binding affinity (expressed as an IC50)), 285 nM.

The values are drawn from patent US20060079453A1, “Hla binding peptides and their uses” (priority 2002, published 2006).
